{"source": "ChEMBL document CHEMBL4819101", "about": "“Design, synthesis and molecular docking studies of thymol based 1,2,3-triazole hybrids as thymidylate synthase inhibitors and apoptosis inducers against breast cancer cells” (Bioorg Med Chem, 2021)", "test_system": "MDA-MB-231", "assay": "Potency index, ratio of 5-fluorouracil IC50 to test compound IC50 for cytotoxicity against human MDA-MB-231 cells assessed as cell growth inhibition incubated for 72 hrs by MTT assay", "format": "functional"}
{"smiles": "Cc1ccc(C(C)C)c(OCc2cn(-c3ccccc3C)nn2)c1", "values": [{"measurement": "Ratio IC50", "result": 2.4}]}
